This data set is described as follows: Pramlintide solubility in DMSO and DMSO-water co-solvents (visual inspection). The format is physicochemical. Here is the method:
• 3b. Alternatively, aqueous insulin or pramlintide solution is dispensed into microcentrifuge tubes and dried by centrifugation under vacuum and gentle heat (25-30° C.). • 4. Dried insulin or pramlintide powder at the selected pH memory is dissolved in DMSO by gentle pipetting to the desired concentration, or the concentration permitted by the particular buffer system and pH. • 5. The resulting solutions are assessed visually for clarity and/or analyzed for light scattering using visible spectroscopy at […], and used in various downstream applications.
Solutions of pramlintide were prepared at a concentration of 2 mg/mL in 10 mM citrate, pH 2.0, or 10 mM citrate, pH 4.0, each with or without 2 mg/mL trehalose. The solutions were dried by centrifugation under vacuum for approximately 3.5 hours at 25-30° C., or lyophilized as described above.

Take `CC[C@H](C)[C@H](NC(=O)[C@@H]1CCCN1C(=O)CNC(=O)[C@H](Cc1ccccc1)NC(=O)[C@H](CC(N)=O)NC(=O)[C@H](CC(N)=O)NC(=O)[C@H](CO)NC(=O)[C@H](CO)NC(=O)[C@H](Cc1c[nH]cn1)NC(=O)[C@@H](NC(=O)[C@H](CC(C)C)NC(=O)[C@H](Cc1ccccc1)NC(=O)[C@H](CC(N)=O)NC(=O)[C@H](C)NC(=O)[C@H](CC(C)C)NC(=O)[C@H](CCCNC(=N)N)NC(=O)[C@H](CCC(N)=O)NC(=O)[C@@H](NC(=O)[C@H](C)NC(=O)[C@@H]1CSSC[C@H](NC(=O)[C@@H](N)CCCCN)C(=O)N[C@@H](CC(N)=O)C(=O)N[C@@H]([C@@H](C)O)C(=O)N[C@@H](C)C(=O)N[C@@H]([C@@H](C)O)C(=O)N1)[C@@H](C)O)C(C)C)C(=O)N[C@@H](CC(C)C)C(=O)N1CCC[C@H]1C(=O)N1CCC[C@H]1C(=O)N[C@H](C(=O)N[C@@H](CC(N)=O)C(=O)N[C@H](C(=O)NCC(=O)N[C@@H](CO)C(=O)N[C@@H](CC(N)=O)C(=O)N[C@H](C(=O)N[C@@H](Cc1ccc(O)cc1)C(N)=O)[C@@H](C)O)C(C)C)[C@@H](C)O` [pramlintide]: the “solubility in neat DMSO” value by setting is: (dried citrate-buffered, pH memory 2.0, with and without trehalose, 20 mg/mL (highest concentration tested)) “completely dissolved”; (dried citrate-buffered, pH memory 4.0, 2 mg/mL) “somewhat resistant to reconstitution”. Besides, the solubility in water entry (dried citrate-buffered, pH memory 4.0) is recorded as “effectively insoluble”. Moreover, the “solubility in DMSO with added water” value (pH memory 4.0, between 6% and 10% water added, nominal 2 to 5 mg/mL, visual inspection) was “improved or nearly complete solubility”.

The record behind these values is patent US9138479B2, “Formulations for the treatment of diabetes” (XERIS PHARMACEUTICALS, INC., priority 2011, dated 2015).
